ChEMBL document CHEMBL1133522, “Chiral resolution, pharmacological characterization, and receptor docking of the noncompetitive mGlu1 receptor antagonist (+/-)-2-hydroxyimino- 1a, 2-dihydro-1H-7-oxacyclopropa[b]naphthalene-7a-carboxylic acid ethyl ester” (J Med Chem, 2000)

Sequences of proteins named here, by UniProt entry; tags and fusion partners are left off. A change or cut given only in a name is not applied to a line headed by its entry.
UniProt Q13255: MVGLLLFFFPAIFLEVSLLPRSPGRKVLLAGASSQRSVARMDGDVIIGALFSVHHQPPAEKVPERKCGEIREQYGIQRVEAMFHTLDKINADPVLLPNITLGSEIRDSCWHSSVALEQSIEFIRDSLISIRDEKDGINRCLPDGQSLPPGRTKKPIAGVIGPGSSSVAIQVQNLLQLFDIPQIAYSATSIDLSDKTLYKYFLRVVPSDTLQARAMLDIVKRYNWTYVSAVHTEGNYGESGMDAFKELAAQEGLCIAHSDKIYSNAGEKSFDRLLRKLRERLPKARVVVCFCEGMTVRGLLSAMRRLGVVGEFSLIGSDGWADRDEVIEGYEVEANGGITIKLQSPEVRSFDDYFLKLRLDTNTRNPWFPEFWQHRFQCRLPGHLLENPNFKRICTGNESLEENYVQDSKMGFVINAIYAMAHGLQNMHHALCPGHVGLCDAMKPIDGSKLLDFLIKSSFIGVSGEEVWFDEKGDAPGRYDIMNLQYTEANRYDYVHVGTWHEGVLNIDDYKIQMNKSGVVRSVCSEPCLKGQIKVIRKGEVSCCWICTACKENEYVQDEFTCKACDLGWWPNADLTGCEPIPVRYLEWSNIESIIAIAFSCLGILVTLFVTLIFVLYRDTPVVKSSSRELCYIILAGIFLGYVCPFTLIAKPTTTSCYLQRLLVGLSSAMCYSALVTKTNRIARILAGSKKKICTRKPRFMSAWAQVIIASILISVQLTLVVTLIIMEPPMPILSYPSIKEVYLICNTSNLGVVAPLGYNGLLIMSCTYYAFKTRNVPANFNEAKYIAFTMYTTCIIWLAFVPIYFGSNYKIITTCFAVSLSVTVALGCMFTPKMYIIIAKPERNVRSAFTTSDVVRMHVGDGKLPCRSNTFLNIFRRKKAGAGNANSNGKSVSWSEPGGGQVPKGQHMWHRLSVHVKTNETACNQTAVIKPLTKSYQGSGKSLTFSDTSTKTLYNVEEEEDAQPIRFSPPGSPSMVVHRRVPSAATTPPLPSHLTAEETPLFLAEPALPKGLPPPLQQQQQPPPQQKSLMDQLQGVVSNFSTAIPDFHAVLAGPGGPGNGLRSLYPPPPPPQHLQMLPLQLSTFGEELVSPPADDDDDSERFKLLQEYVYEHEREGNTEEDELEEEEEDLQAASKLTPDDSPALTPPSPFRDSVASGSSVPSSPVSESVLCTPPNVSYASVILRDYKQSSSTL

Assays:
[1] = molecular target: T1, Metabotropic glutamate receptor 1 (Homo sapiens, UniProt Q13255); conditions: CHO; 100 uM
[2] = molecular target: T1, Metabotropic glutamate receptor 1; conditions: CHO; 100 uM; remark: listed apart in the source

Row | inhibition [1] [%] | inhibition [2] [%] | Structure (SMILES)
1 | 23 |  | COC(=O)[C@@H](Cc1ccccc1)NC(=O)[C@@]12C[C@@H]1/C(=N\O)c1ccccc1O2
2 |  | 48 | COC(=O)[C@H](Cc1ccccc1)NC(=O)[C@]12C[C@H]1/C(=N\O)c1ccccc1O2
